The values that follow come from US7507792B2, “MDA-7 proteins and methods of use thereof” (The Trustees of Columbia University In The City of New York, priority 1993, dated 2009).

What all share (type): cell-based, human
The test system of one assay is mda-4. Put plainly: mda-4 expression (Northern blotting). Conditions: H0-1. Here is the method:
(§1) FIG. 19 Effect of various treatment protocols on mda expression in H0-1 cells. IFN-β (2,000 units/ml, 24 hours); MEZ (10 ng/ml, 24 hours); IFN-β+MEZ (2,000 units/ml+10 ng/ml, 24 hours); phenyl butyrate (PB) (4 mM, 24 hours, 4 d, 7 d); γ Rad (γ irradiation) 3 gray, 24 hours, Act D (actinomycin D) (5 μg/ml, 2 hour→24 hours assay); Adriamycin (Adr) (0.1 μg/ml, 24 hours); Vincristine (Vin) (0.1 μg/ml, 24 hours); cis-plt (cis-platinum) (0.1 μg/ml, 24 hours); TNF-α (tumor necrosis factor-α) (100 units/ml, 24 hours); UV (10 joules/mm^2, 2, 14 and 24 hours assay); VP-16 (5 μg/ml, 24 hours); IFN-α (2,000 units/ml, 24 hours); and IFN-α+MEZ (2,000 units/ml+10 ng/ml, 24 hours).
(§2) The mass excision of the library was performed using ExAssist helper phage as described above. The SOLR strain of Escherichia coli and cDNA phagemids were mixed at 37° C. for 15 min and plated onto LB plates containing ampicillin and IPTG/X-gal. White colonies were chosen at random, isolated and grown in LB medium. Plasmid minireps and restriction enzyme digestions were performed to confirm the presence of inserts. The inserts were isolated and used as robes for Northern blotting analysis (5,25). […]

The next assay deals with mda-5. Nature of the assay: mda-5 expression (Northern blotting). As to conditions: H0-1. As for the experimental part: as §1, §2
The test system of another assay is mda-6. Nature of the assay: mda-6 expression (Northern blotting). Conditions: H0-1. As for the experimental part: The mass excision of the library was performed using ExAssist helper phage as described above. The SOLR strain of Escherichia coli and cDNA phagemids were mixed at 37° C. for 15 min and plated onto LB plates containing ampicillin and IPTG/X-gal. White colonies were chosen at random, isolated and grown in LB medium. Plasmid minireps and restriction enzyme digestions were performed to confirm the presence of inserts. The inserts were isolated and used as robes for Northern blotting analysis (5,25). […] Radiolabeled probes were generated by random oligonucleotide priming (25). Prehybridization, hybridization, posthybridization washes, and autoradiography were performed as described (5,18,25).
Total cytoplasmic RNA was isolated and Northern blotting hybridization was performed as described (Reddy et al., 1991; Su et al., 1991; Jiang et al., 1992). Ten μg of RNA was denatured with glyoxal/DMSO, electrophoresed on 1.0% agarose gels, transferred to nylon membranes and hybridized to a ^32P-labeled p53 probe (Baker et al., 1990). […] Following hybridization, the filters were washed and exposed for autoradiography (Reddy et al., 1991; Su et al., 1991; Jiang et al., 1992). mda-6 and GAPDH gene expression were also determined by reverse transcription-polymerase chain reaction (RT-PCR) as described (Adollahi et al., 1991; Lin et al., 1994; Jiang et al., 1994b). […]

The subject of the next assay is mda-9. Put plainly: mda-9 expression (Northern blotting). Conditions: H0-1. Here is the method:
as §1, §2

For the next assay, the system named is H0-1 cells. Nature of the assay: Northern blotting of H0-1 RNA probed with mda cDNA clones. Conditions: 24 hours. As for the experimental part:
FIG. 10 Northern blot analyses of untreated control and IFN-β, MEZ and IFN-β+MEZ treated H0-1 cells probed with cDNA clones isolated from an H0-1 IFN-β+MEZ (Ind^+) subtracted cDNA library. RNA was isolated from cells untreated or treated for 24 hours with IFN-β (2000 units/ml), MEZ (10 ng/ml) or IFN-β+MEZ (2000 units/ml and 10 ng/ml). Ten micrograms of total cellular RNA were separated on a 1% agarose gel, transferred to nylon membranes and then hybridized individually with radioactive probes prepared using appropriate inserts from the cDNA clones. The series of cDNAs isolated from inducer treated H0-1 cells have been tentatively called mda, melanoma differentiation associated, genes, Glyceraldehyde phosphate dehydrogenase (GAPDH) was used as a control for uniform loading and expression of the RNA samples.
The mass excision of the library was performed using ExAssist helper phage as described above. The SOLR strain of Escherichia coli and cDNA phagemids were mixed at 37° C. for 15 min and plated onto LB plates containing ampicillin and IPTG/X-gal. White colonies were chosen at random, isolated and grown in LB medium. Plasmid minireps and restriction enzyme digestions were performed to confirm the presence of inserts. The inserts were isolated and used as robes for Northern blotting analysis (5,25). Total cellular RNA was prepared from H0-1 cells treated with IFN-β (2000 units/ml), MEZ (10 ng/ml), and IFN-β plus MEZ (2000 units/ml plus 10 ng/ml), electrophoresed in 0.8% agarose gels and transferred to nylon membranes (Amersham, Arlington Heights, Ill.). Radiolabeled probes were generated by random oligonucleotide priming (25). Prehybridization, hybridization, posthybridization washes, and autoradiography were performed as described (5,18,25).

Setting [1] is: 24 hours, doses of FIG. 19, phenyl butyrate 24 hours, 4 days or 7 days.
[2] abbreviates: 96 hours, doses of FIG. 15 legend.

“Also recorded” adds a separate entry of the source.

B1: IFN-β: Recombinant human IFN-β, with a serine substituted for a cysteine at position 17 of the molecule (protein)
chain: MSYNLLGFLQRSSNFQCQKLLWQLNGRLEYCLKDRMNFDIPEEIKQLQQFQKEDAALTIYEMLQNIFAIFRQDSSSTGWNETIVENLLANVYHQINHLKTVLEEKLEKEDFTRGKLMSSLHLKRYYGRILHYLKAKEYSHCAWTIVRVEILRNFYFINRLTGYLRN
B1: the mda-4 expression entry in the assay on mda-4 (setting [1]) is “increased expression”; in the assay with mda-4 (setting [2]) it was “No or only a small change in expression”. The values for the mda-5 expression result in the assay on mda-5 (setting [1]) and in the assay with mda-5 (setting [2]) were “increased expression” and “Very low induction”, respectively. For the same molecule, the mda-6 expression entry with mda-6 (24 hours, doses of FIG. 19, phenyl butyrate 24 hours, 4 or 7 days) is reported as “increased expression; also recorded: smaller induction of mda-6 expression”; in the assay with mda-6 (setting [2]), “no significant or reduced alteration in expression”. For the same molecule, the mda-9 expression result is listed as “Increased expression” in the assay on mda-9 (setting [1]) and “No change in mda-9 expression” in the assay on mda-9 (setting [2]). The mda-1 expression entry in the assay with H0-1 cells is reported as “increased expression”. Moreover, in the assay on H0-1 cells, the mda-2 expression result was “increased expression”. Further, the mda-13 expression result in the assay on H0-1 cells is “increased expression”.
